# Results published in patent US10912763B2 (priority 2010, dated 2021).
# Where two headings read alike, the source gives them in different places.
# Assays:
# [1] = for Cmax,5d, arithmetic mean / Cmax,5d, geometric mean / tmax,5d, geometric mean / tmax,5d, arithmetic mean: day 5; for mean C0-3 h, 1 d: 0-3 h after administration on day 1; for mean C0-3 h, 1 d / mean C0-3 h, 5 d: mean ± SD; for mean C0-3 h, 5 d: 0-3 h after administration on day 5
# [2] = Saturation concentration of (I′b) in oils, surfactants, solvents and their mixtures
# [3] = tested on: painful diabetic neuropathy
compound,measurement,setting,value
CN(C)[C@]1(c2ccccc2)CC[C@]2(CC1)OCCc1c3cc(F)ccc3[nH]c12,"Cmax,5d, arithmetic mean",[1]; dosage 40 μg once daily,27.39 pg/mL
same,"Cmax,5d, geometric mean",[1]; dosage 40 μg once daily,25.39 pg/mL
same,"tmax,5d, geometric mean",[1]; dosage 40 μg once daily,4.654 h
same,"mean C0-3 h, 1 d",[1]; dosage 40 μg,18.5 ± 18.1 (N = 23) pg/mL
same,"mean C0-3 h, 5 d",[1]; dosage 40 μg,14.8 ± 8.7 (N = 26) pg/mL
same,"Cmax,5d, arithmetic mean",[1]; dosage 80 μg once daily,60.20 pg/mL
same,"Cmax,5d, geometric mean",[1]; dosage 80 μg once daily,56.89 pg/mL
same,"tmax,5d, arithmetic mean",[1]; dosage 80 μg once daily,5.150 h
same,"mean C0-3 h, 1 d",[1]; dosage 80 μg,26.5 ± 15.4 (N = 21) pg/mL
same,"mean C0-3 h, 5 d",[1]; dosage 80 μg,40.3 ± 16.4 (N = 22) pg/mL
same,"Cmax,5d, arithmetic mean",[1]; dosage 100 μg once daily,75.24 pg/mL
same,"Cmax,5d, geometric mean",[1]; dosage 100 μg once daily,69.17 pg/mL
same,"tmax,5d, arithmetic mean",[1]; dosage 100 μg once daily,5.125 h
same,"tmax,5d, geometric mean",[1]; dosage 100 μg once daily,4.658 h
same,"mean C0-3 h, 1 d",[1]; dosage 100 μg,24.6 ± 19.7 (N = 33) pg/mL
same,"mean C0-3 h, 5 d",[1]; dosage 100 μg,49.1 ± 27.9 (N = 37) pg/mL
same,"Cmax,5d, arithmetic mean",[1]; dosage 120 μg once daily,86.49 pg/mL
same,"Cmax,5d, geometric mean",[1]; dosage 120 μg once daily,79.81 pg/mL
same,"tmax,5d, arithmetic mean",[1]; dosage 120 μg once daily,4.591 h
same,"tmax,5d, geometric mean",[1]; dosage 120 μg once daily,4.288 h
same,"mean C0-3 h, 1 d",[1]; dosage 120 μg,34.7 ± 25.8 (N = 26) pg/mL
same,"mean C0-3 h, 5 d",[1]; dosage 120 μg,50.0 ± 30.6 (N = 25) pg/mL
same,"Cmax,5d, arithmetic mean",[1]; dosage 200 μg once daily,160.38 pg/mL
same,"Cmax,5d, geometric mean",[1]; dosage 200 μg once daily,154.68 pg/mL
same,"tmax,5d, arithmetic mean",[1]; dosage 200 μg once daily,5.745 h
same,"tmax,5d, geometric mean",[1]; dosage 200 μg once daily,5.269 h
same,"mean C0-3 h, 1 d",[1]; dosage 200 μg,53.3 ± 40.1 (N = 22) pg/mL
same,"mean C0-3 h, 5 d",[1]; dosage 200 μg,105.2 ± 34.6 (N = 22) pg/mL
same,Solubility of (I′b) (in surfactant/oil),[2]; in Gelucire 44/14/Capryol 5:95 wt.-%/wt.-%,3.06 mg/g
same,Solubility of (I′b) (in surfactant/oil),[2]; in Gelucire 44/14/Capryol 10:90 wt.-%/wt.-%,3.31 mg/g
same,Solubility of (I′b) (in surfactant/oil),[2]; in Gelucire 44/14/Capryol 20:80 wt.-%/wt.-%,4.05 mg/g
same,Solubility of (I′b) (in surfactant/oil),[2]; in Gelucire 44/14/Capryol 40:60 wt.-%/wt.-%,6.07 mg/g
same,Solubility of (I′b) (in surfactant/oil),[2]; in Solutol HS/Capryol 5:95 wt.-%/wt.-%,3.01 mg/g
same,Solubility of (I′b) (in surfactant/oil),[2]; in Solutol HS/Capryol 10:90 wt.-%/wt.-%,3.14 mg/g
same,Solubility of (I′b) (in surfactant/oil),[2]; in Solutol HS/Capryol 20:80 wt.-%/wt.-%,3.65 mg/g
same,Solubility of (I′b) (in surfactant/oil),[2]; in Solutol HS/Capryol 40:60 wt.-%/wt.-%,4.56 mg/g
same,Effect compared with placebo,"[3]; 40 μg once daily, no differentiation from day 1 onwards",differentiated from placebo on day 5
same,Number of events leading to withdrawal,"[3]; 40 μg, Study A",0
same,Number of serious TEAEs,"[3]; 40 μg, Study A",0
same,Subjects with TEAEs (number),"[3]; 40 μg, Study A",21
same,Subjects with TEAEs (percent),"[3]; 40 μg, Study A",(80.8%)
same,TEAEs (%) Back pain,"[3]; 40 μg, Study A",7.7%
same,TEAEs (%) Bacteriuria,"[3]; 40 μg, Study A",0%
same,TEAEs (%) Cold sweat,"[3]; 40 μg, Study A",0%
same,TEAEs (%) Constipation,"[3]; 40 μg, Study A",23.1%
same,TEAEs (%) Dizziness,"[3]; 40 μg, Study A",26.9%
same,TEAEs (%) Dyspepsia,"[3]; 40 μg, Study A",7.7%
same,TEAEs (%) ECG QT prolonged,"[3]; 40 μg, Study A",0%
same,TEAEs (%) Fatigue,"[3]; 40 μg, Study A",11.5%
same,TEAEs (%) Headache,"[3]; 40 μg, Study A",34.6%
same,TEAEs (%) Hyperglycemia,"[3]; 40 μg, Study A",0%
same,TEAEs (%) Nausea,"[3]; 40 μg, Study A",26.9%
same,TEAEs (%) Oral discomfort,"[3]; 40 μg, Study A",7.7%
same,TEAEs (%) Oropharyngeal Pain,"[3]; 40 μg, Study A",0%
same,TEAEs (%) Peripheral oedema,"[3]; 40 μg, Study A",7.7%
same,TEAEs (%) Pruritus,"[3]; 40 μg, Study A",0%
same,TEAEs (%) Vision blurred,"[3]; 40 μg, Study A",0%
same,TEAEs (%) Visual impairment,"[3]; 40 μg, Study A",0%
same,TEAEs (%) Vomiting,"[3]; 40 μg, Study A",0%
same,Total number of TEAEs,"[3]; 40 μg, Study A",65
same,"Total number of TEAEs, at least possibly related (in brackets)","[3]; 40 μg, Study A",(39)
same,"Mean daily pain intensity change from baseline, difference to placebo",[3]; 80 μg to 200 μg once daily for 5 days (except the 120 μg group),statistically significant differences to placebo
same,Number of events leading to withdrawal,"[3]; 80 μg, Study B",0
same,Number of serious TEAEs,"[3]; 80 μg, Study B",0
same,Subjects with TEAEs (number),"[3]; 80 μg, Study B",16
same,Subjects with TEAEs (percent),"[3]; 80 μg, Study B",(69.6%)
same,TEAEs (%) Back pain,"[3]; 80 μg, Study B",0%
same,TEAEs (%) Bacteriuria,"[3]; 80 μg, Study B",8.7%
same,TEAEs (%) Cold sweat,"[3]; 80 μg, Study B",8.7%
same,TEAEs (%) Constipation,"[3]; 80 μg, Study B",0%
same,TEAEs (%) Dizziness,"[3]; 80 μg, Study B",26.1%
same,TEAEs (%) Dyspepsia,"[3]; 80 μg, Study B",4.3%
same,TEAEs (%) ECG QT prolonged,"[3]; 80 μg, Study B",8.7%
same,TEAEs (%) Fatigue,"[3]; 80 μg, Study B",4.3%
same,TEAEs (%) Headache,"[3]; 80 μg, Study B",13.0%
same,TEAEs (%) Hyperglycemia,"[3]; 80 μg, Study B",8.7%
same,TEAEs (%) Nausea,"[3]; 80 μg, Study B",13.0%
same,TEAEs (%) Oral discomfort,"[3]; 80 μg, Study B",0%
same,TEAEs (%) Oropharyngeal Pain,"[3]; 80 μg, Study B",0%
same,TEAEs (%) Peripheral oedema,"[3]; 80 μg, Study B",0%
same,TEAEs (%) Pruritus,"[3]; 80 μg, Study B",0%
same,TEAEs (%) Vision blurred,"[3]; 80 μg, Study B",4.3%
same,TEAEs (%) Visual impairment,"[3]; 80 μg, Study B",0%
same,TEAEs (%) Vomiting,"[3]; 80 μg, Study B",4.3%
same,Total number of TEAEs,"[3]; 80 μg, Study B",53
same,"Total number of TEAEs, at least possibly related (in brackets)","[3]; 80 μg, Study B",(24)
same,Number of events leading to withdrawal,"[3]; 100 μg, Study C",0
same,Number of serious TEAEs,"[3]; 100 μg, Study C",0
same,Subjects with TEAEs (number),"[3]; 100 μg, Study C",27
same,Subjects with TEAEs (percent),"[3]; 100 μg, Study C",(73%)
